By UniProt entry, the sequences of proteins in these tests, tags left out.
UniProt P23977, whole entry: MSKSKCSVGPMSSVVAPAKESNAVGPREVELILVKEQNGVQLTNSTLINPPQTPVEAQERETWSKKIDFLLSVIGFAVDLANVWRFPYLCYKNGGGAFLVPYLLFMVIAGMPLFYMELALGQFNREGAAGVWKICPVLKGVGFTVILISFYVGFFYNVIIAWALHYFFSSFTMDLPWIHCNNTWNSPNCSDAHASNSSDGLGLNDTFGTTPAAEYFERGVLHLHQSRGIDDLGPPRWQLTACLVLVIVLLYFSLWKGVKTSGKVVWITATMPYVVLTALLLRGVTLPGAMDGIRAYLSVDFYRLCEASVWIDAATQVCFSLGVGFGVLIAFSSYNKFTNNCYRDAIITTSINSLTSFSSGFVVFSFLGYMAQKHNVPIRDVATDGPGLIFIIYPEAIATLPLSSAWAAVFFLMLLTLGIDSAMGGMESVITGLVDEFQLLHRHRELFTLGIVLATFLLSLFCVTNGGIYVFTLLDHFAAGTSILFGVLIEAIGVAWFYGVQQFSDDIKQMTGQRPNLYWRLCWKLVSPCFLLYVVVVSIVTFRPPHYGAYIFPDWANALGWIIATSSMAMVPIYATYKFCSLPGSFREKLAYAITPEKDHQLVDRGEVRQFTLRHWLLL

According to patent publication US11365195B2, “Atypical inhibitors of monoamine transporters; method of making; and use thereof” (THE UNITED STATES OF AMERICA, AS REPRESENTED BY THE …, priority 2017, dated 2022):

Biological target: T1, DAT (Rattus norvegicus, UniProt P23977)
T1 construct: 100 μl of tissue preparation (1.5 mg of brain striatum membranes per well); tissue Bioreclamation IVT (Hicksville, N.Y.); host or cells: male Sprague-Dawley rat brain striatum membranes
Experiment: DAT radioligand binding in rat striatum ([3H]-WIN35,428 competition)
Conditions: ratio of SERT Ki to DAT Ki

## Cl.O.O=C(c1cc2ccccc2o1)N1CCC(NCCSC(c2ccc(F)cc2)c2ccc(F)cc2)CC1 [JBG02-015, Benzofuran-2-yl(4-((2-((bis(4-fluorophenyl)methyl)thio)ethyl)amino)piperidin-1-yl)methanone]
  SERT/DAT: 0.84
